The target of this experiment is Angiotensin II receptor (Homo sapiens) (UniProt P30556+P50052). The experiment in a line: Ratio of Ki value of AT2/AT1 receptor was determined. The format is protein assay.

Amino acid sequences for entries named in this document (tags omitted). A change or cut given only in a name is not applied to a line headed by its entry.
UniProt P50052: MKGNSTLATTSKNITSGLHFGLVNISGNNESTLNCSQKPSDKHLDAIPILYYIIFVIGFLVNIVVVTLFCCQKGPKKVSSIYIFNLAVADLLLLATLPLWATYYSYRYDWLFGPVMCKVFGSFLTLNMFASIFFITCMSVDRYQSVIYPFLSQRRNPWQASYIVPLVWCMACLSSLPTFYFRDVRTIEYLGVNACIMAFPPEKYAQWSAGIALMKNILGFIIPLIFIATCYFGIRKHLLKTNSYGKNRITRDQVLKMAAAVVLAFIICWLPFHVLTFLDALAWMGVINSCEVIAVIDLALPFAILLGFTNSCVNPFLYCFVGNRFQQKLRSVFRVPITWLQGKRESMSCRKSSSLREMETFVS

For the compound `CCCCc1nc2ccc(NC(=O)NC3CCCCC3)cc2n1Cc1ccc(-c2ccccc2C(=O)O)cc1`, the Ratio turned out to be 17.

For the origin of these results see ChEMBL document CHEMBL1127303, “Triazolinone biphenylsulfonamides as angiotensin II receptor antagonists with high affinity for both the AT1 and AT2 subtypes” (J Med Chem, 1994).
